By UniProt entry, the sequences of proteins in these tests, tags left out.
UniProt P20272, whole entry: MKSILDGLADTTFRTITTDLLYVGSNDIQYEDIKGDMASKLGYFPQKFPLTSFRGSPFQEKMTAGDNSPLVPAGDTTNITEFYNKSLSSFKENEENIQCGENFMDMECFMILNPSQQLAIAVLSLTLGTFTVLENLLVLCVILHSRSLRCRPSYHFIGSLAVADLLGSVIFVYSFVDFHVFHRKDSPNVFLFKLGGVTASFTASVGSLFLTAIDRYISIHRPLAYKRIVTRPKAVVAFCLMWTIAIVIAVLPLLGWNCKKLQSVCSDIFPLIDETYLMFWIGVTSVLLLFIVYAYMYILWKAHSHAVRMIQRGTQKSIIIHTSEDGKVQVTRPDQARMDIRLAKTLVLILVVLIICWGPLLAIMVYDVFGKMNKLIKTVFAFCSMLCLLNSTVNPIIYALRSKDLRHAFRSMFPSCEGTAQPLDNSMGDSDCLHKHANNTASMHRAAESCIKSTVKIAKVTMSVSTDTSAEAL
UniProt P34972, whole entry: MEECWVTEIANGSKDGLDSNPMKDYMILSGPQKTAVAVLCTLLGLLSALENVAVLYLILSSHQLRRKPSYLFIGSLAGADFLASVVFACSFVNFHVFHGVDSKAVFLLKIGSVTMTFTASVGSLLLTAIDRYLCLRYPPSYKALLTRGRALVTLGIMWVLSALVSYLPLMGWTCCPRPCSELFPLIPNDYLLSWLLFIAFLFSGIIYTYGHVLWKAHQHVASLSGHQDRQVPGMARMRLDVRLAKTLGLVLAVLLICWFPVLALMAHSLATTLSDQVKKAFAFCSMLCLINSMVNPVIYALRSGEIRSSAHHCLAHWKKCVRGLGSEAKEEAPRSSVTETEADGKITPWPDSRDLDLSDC

In patent US7179800B2 (priority 2002, dated 2007):

Experiments:
CB1 receptor = CB1 receptor (Rattus norvegicus, UniProt P20272); assay: CB1 binding procedure: displacement of [3H]CP 55,940 from rat whole-brain P2 membranes; conditions: read-out: Ki (nM) CB1; means ± SEM; [3H]CP 55,940, rat brain membranes
CB2 receptor = CB2 receptor (Homo sapiens, UniProt P34972); assay: CB2 binding procedure: displacement of [3H]CP-55,940 from membranes of transfected CHO cells; conditions: relative to the comparator analog
Male ICR mice [1] = assay: Suppression of spontaneous activity (SA) in mice; assay type: in vivo, mouse; conditions: Table 6; @ 30 (mg/kg)
Description: (§1) Male ICR mice (25–32 g), obtained from Harlan (Dublin, Va.), were housed in groups of five. All animals were kept in a temperature-controlled (20–22° C.) environment with a 12-hour light-dark cycle (lights on at 7 a.m.). Separate mice were used for testing each drug dose in the in vivo behavioral procedures. Brain tissue for binding studies was obtained from male Sprague-Dawley rats (150–200 g) purchased from Harlan Laboratories (Dublin, Va.).
(§2) Measurement of spontaneous activity in mice occurred in standard activity chambers interfaced with a Digiscan Animal Activity Monitor (Omnitech Electronics, Inc., Columbus, Ohio). […]
(§3) Prior to testing in the behavioral procedures, mice were acclimated to the experimental setting (ambient temperature 22–24° C.) overnight. Pre-injection control values were determined for rectal temperature and tail-flick latency (in sec). […] Tail-flick latency was measured at 20 min post-injection. […] Antinociception was calculated as percent of maximum possible effect {% MPE=[(test−control latency)/(10-control)]×100}. […] At 30 min post-injection, rectal temperature was measured This value was expressed as the difference between control temperature (before injection) and temperatures following drug administration (° C.). […]

Male ICR mice [2] = assay: Tail-flick antinociception (TF, % MPE) in mice; assay type: in vivo, mouse; conditions: Table 6; @ 30 (mg/kg)
Description: as §1, §2, §3

## CCCCCCC(C)(C)c1cc(OC)c(C2(O)CCOCC2)c(OC)c1
CB1 receptor
  Ki: > 10000 nM
CB2 receptor
  fold increase in CB2 affinity: 3 fold
Male ICR mice [1]
  S.A % effect at dose: 36% @ 30
Male ICR mice [2]
  T.F. % effect at dose: 23% @ 30
